Measured values from patent US20190144503A1, “METHODS FOR THE IDENTIFICATION OF BIFUNCTIONAL COMPOUNDS” (Regents of the University of Minnesota, priority 2016, published 2019).

Biological target: T1, carbonic anhydrase 9 (Homo sapiens, UniProt Q16790)
T1 construct: His tag; purchased Sino Biological
Assay: Binding of purified Fn-AAZ clones to carbonic anhydrase 9 (FIG. 14A-B)
Settings: purified clone
Description: Fn-AAZ clones selected for binding to carbonic anhydrase 9 were expressed, purified, and sequenced according to methods well-known to one of skill in the art. FIGS. 13A-C show the results of an exemplary expression and purification of an Fn-AAZ clone. As shown in FIG. 14A-B, two Fn-AAZ conjugates were further characterized following expression and purification. A first Fn-AAZ clone (Clone 0.3.10) was identified that has 10-fold higher affinity to carbonic anhydrase 9 when compared to Fn that has not been conjugated to AAZ (FIG. 14A). The sequence of the selected fibronectin type III domain of the first Fn-AAZ conjugate corresponds to SEQ ID NO:3. A second Fn-AAZ clone (Clone 0.3.9) was identified that has approximately 6-fold higher affinity to carbonic anhydrase 9 when compared to Fn that has not been conjugated to AAZ (FIG. 14B). The sequence of the selected fibronectin type III domain of the second Fn-AAZ conjugate corresponds to SEQ ID NO:4. The sequences of the selected fibronectin type III domains of several other Fn-AAZ conjugates having high affinity and selectivity for carbonic anhydrase 9 are provided in SEQ ID NOs: 5-8.

B1: Clone 0.3.9: purified Fn-AAZ clone: fibronectin type III domain of SEQ ID NO:4 conjugated to acetazolamide (AAZ) (conjugate)
chain: MASSSDSPRNLEVTNATPNSLTISWDDSYCVIYYRITYGETGGNSPSQEFTVPGYTNSVTISGLKPGQDYTITVYAVTDYSKLDPSNPISINYRTEIDKPSQGS
modifications: acetazolamide conjugate; Type III domain of human fibronectin
For B1, the “fold higher affinity to carbonic anhydrase 9 compared to Fn that has not been conjugated to AAZ” value was “approximately 6 fold”.
